Results on one substance are retold here after patent US20060045884A1, “Vaccines for autoimmune and infectious disease” (Board of Regents, priority 2004, published 2006).

For the assay, the system named is peptide-loaded T2 cells. Put plainly: Induction of primary CTL responses with peptide-pulsed T2 cells and 4-hr cytotoxicity against peptide-loaded T2 cells. Format: cell-based, human. To be noted: E:T 50:1.

On to “HTLV-1 Tax: HTLV-1 peptide (aa 11-19) with known high binding affinity to HLA-A2.1 [reference compound]”, for which the “specific lysis of T2 cells loaded with irrelevant peptide by CTL specific for either MY2 or MY4” value is reported as under 20% and the “specific lysis of T2 cells loaded with irrelevant peptide by CTL specific for either PR1 or PR-2” value is listed as under 20%.
